Experimental data taken from patent publication US20110206732A1 (priority 2007, published 2011).

Columns and labels:
[1] = tested on: U937 cell line; assay type: cell-based; conditions: 20% (w/v) albumin, 24 hour incubation, trypan blue
[2] = tested on: different neoplastic cell types, both in suspension and adherent; assay: Light microscopy, hematoxylin-eosin staining, death of cultured cells; assay type: cell-based; conditions: albumin in physiologic solution 2% to 50% (preferably 10% to 20%) w/v, within 8-24 hours of incubation
Description: in suspension: lymphoblastic leukaemia cell lines such as H9, MT2, MT4, THP-1 and U937 monocytic leukaemia cell lines, K562 erythroid leukaemia cell lines;
adherent: Hep-G2 hepatocarcinoma cell lines, primary canine hepatocarcinoma cells, primary human mammary tumour cells, primary canine mammary tumour cells, human glioblastoma cells.
The cells were washed three times by centrifuging at 160 g for 10 min at room temperature in phosphate buffer (PBS, pH 7.2) and resuspended into 50 ml tubes (Nunc, Kamstrup, Denmark) at a final concentration of 10×10^6 cells/ml, again in phosphate buffer (PBS, pH 7.2).
The cells were resuspended at a final concentration of 1×10^6 cells/ml into six-well plates (Lab-Tek chamber slides, Nunc, Kamstrup, Denmark) in 4 ml/well of final solution consisting of common RPMI 1640 culture medium (GIBCO) supplemented with: • 10% FCS (Celbio, Milan, Italy); • 100 units/ml penicillin; • 100 μg/ml streptomycin; • 160 mg/L gentamycin (Schering-Plough, Milan, Italy); • 2 mM L-glutamine (Life Technologies; growth medium).
The cells were incubated for 3 days in a thermostatically controlled Heraeus incubator at a temperature of 37° C. under an atmosphere having a constant supply of 5% CO2 (v/v in air).
The cells were monitored hourly for a total of three days of culture. […]

[3] = tested on: MT4 cell line; assay type: cell-based; conditions: 20% (w/v) albumin, 24 hour incubation, trypan blue
[4] = tested on: H9 cell line; assay type: cell-based; conditions: 20% (w/v) albumin, 24 hour incubation, trypan blue
[5] = tested on: HEP-G2 cell line; assay type: cell-based; conditions: 20% (w/v) albumin, 24 hour incubation, trypan blue
[6] = tested on: K562 cell line; assay type: cell-based; conditions: 20% (w/v) albumin, 24 hour incubation, trypan blue
[7] = tested on: MT2 cell line; assay type: cell-based; conditions: 20% (w/v) albumin, 24 hour incubation, trypan blue
[8] = tested on: THP-1 cell line; assay type: cell-based; conditions: 20% (w/v) albumin, 24 hour incubation, trypan blue
[9] = tested on: Primary canine hepatocarcinoma cells; assay type: cell-based; conditions: 20% (w/v) albumin, 24 hour incubation, trypan blue
[10] = tested on: Primary human mammary tumour cells; assay type: cell-based; conditions: 20% (w/v) albumin, 24 hour incubation, trypan blue
[11] = animal models; cited from earlier work
[12] = tested on: Human glioblastoma cells; assay type: cell-based; conditions: 20% (w/v) albumin, 24 hour incubation, trypan blue
[13] = tested on: Primary canine mammary tumour cells; assay type: cell-based; conditions: 20% (w/v) albumin, 24 hour incubation, trypan blue

## albumin
[1]
  MORTALITY: 86%
[2]
  cultured cells caused to die: 50-100%
[3]
  MORTALITY: 81%
[4]
  MORTALITY: 90%
  VIABILITY: 10%
[5]
  MORTALITY: 80%
  VIABILITY: 20%
[6]
  MORTALITY: 81%
[7]
  MORTALITY: 85%
[8]
  MORTALITY: 82%
[9]
  MORTALITY: 72%
[10]
  MORTALITY: 88%
  VIABILITY: 12%
[11]
  acute toxicity: No signs of acute toxicity
[12]
  MORTALITY: 89%
[13]
  MORTALITY: 70%
  VIABILITY: 30%
